Test [1] addresses T1, PRMT5-MEP50 enzyme (Homo sapiens, UniProt O14744). The experiment in a line: In vitro assay 1a: high throughput mass spectrometer assay of SAH formation, 10 nM enzyme, 60 min. Particulars: averaged values, PRMT5-MEP50, 10 nM enzyme. It is filed as biochemical.
Test [2] deals with T1, PRMT5-MEP50 enzyme. The experiment in a line: In vitro assay 1b: high throughput mass spectrometer assay of SAH formation, 1.25 nM enzyme, 120 min. Particulars: averaged values, PRMT5-MEP50, 1.25 nM enzyme. The format is biochemical.
Test [3] deals with nuclear symmetric Arginine dimethylation in A549 cells. The experiment in a line: PD assay (assay 2): inhibition of nuclear symmetric Arginine dimethylation (SYM10 immunohistochemistry), 48 h. The format is cell-based. The following applies: averaged values. The method, then: Experimental Procedure PD Assay (Assay 2)
A549 cells (ATCC, Cat #CCL-185) were cultured in Dulbecco's Modified Eagle's Medium (DMEM) (Sigma, Cat #D5796), supplemented with 10% Fetal Calf Serum (FCS) (HyClone™, Cat #SV30160.03), 100 mM Sodium Pyruvate (Sigma, Cat #S8636), 200 mM L-Glutamine (Sigma, Cat #G7513) and 50 mg/mL gentamycin (Gibco, Cat #15750-037).
Reagents used for buffers were purchased: Dulbecco's phosphate buffered saline (DPBS) without Ca/Mg (Sigma, Cat #D8537), phosphate buffered saline (PBS) 10× (Roche, Cat #11 666 789 001), Formalin solution 10% (Sigma, HT50-1-128-4L), Methanol 100% (Sigma, Cat #32213-2.5L), Triton X-100 (Acros, Cat #215680010), Bovine Serum Albumin (BSA) (Sigma, Cat #A2153), Alexa fluor 488 goat anti-rabbit antibody (Life Technologies, Cat #A11034), HCS CellMask Deep Red Stain (Life Technologies, Cat #H32721), Hoechst Stain (Life Technologies, Cat #33258), Anti-dimethyl-Arginine, sym (SYM10) antibody (Millipore, 07-412).
Immunohistochemistry Procedure
Cells were plated at 400 cells/40 μL/well in 384 well black μplates clear bottom (Perkin Elmer) and overnight incubated at 37° C., 5% CO2. […] 80 nL of the respective dilution of the compounds was added using the Labcyte POD 810 (Labcyte) reaching a final DMSO concentration of 0.2% in cell culture. After an incubation period of 48 h at 37° C. and 5% CO2, cells were fixed in 10% formalin solution for 15 min at room temperature and 20 min in ice-cold methanol, after which they were washed 3× in DPBS. Subsequently, the cells were blocked for 1 h in blocking buffer (PBS+1% BSA and 0.5% Triton X-100) and incubated overnight at 4° C. with the SYM10 antibody diluted 1/2000 in blocking buffer. The cells were washed 3× with washing buffer (PBS+0.1% Triton X-100) and incubated with the Alexa fluor 488 goat anti-rabbit antibody diluted 1/200 in blocking buffer for 1 h at room temperature. […]
IC50 and pIC50 (−log IC50) values were calculated using the appropriate software.
The pIC50 values in the Table below are averaged values (Co. No. means compound number; n.d. means not determined).

Chains of the proteins cited; added tags and fusions are not shown.
UniProt O14744, whole entry: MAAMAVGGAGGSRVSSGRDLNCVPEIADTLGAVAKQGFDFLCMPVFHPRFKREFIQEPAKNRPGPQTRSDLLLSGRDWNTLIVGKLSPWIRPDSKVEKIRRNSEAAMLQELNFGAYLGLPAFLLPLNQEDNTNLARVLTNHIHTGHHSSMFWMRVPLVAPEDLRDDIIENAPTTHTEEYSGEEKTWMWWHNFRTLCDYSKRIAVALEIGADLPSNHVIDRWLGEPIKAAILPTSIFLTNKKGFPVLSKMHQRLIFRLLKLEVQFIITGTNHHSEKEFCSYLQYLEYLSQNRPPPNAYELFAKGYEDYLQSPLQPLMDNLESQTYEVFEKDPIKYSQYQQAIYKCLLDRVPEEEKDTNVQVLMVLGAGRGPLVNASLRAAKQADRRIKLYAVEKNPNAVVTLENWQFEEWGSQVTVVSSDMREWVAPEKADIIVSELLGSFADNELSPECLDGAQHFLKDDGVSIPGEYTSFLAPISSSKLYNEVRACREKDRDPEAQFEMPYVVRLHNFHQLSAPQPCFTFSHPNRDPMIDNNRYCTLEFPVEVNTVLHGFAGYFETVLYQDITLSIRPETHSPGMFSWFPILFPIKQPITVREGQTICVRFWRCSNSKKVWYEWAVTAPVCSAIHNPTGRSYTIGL
UniProt Q9BQA1, whole entry partner: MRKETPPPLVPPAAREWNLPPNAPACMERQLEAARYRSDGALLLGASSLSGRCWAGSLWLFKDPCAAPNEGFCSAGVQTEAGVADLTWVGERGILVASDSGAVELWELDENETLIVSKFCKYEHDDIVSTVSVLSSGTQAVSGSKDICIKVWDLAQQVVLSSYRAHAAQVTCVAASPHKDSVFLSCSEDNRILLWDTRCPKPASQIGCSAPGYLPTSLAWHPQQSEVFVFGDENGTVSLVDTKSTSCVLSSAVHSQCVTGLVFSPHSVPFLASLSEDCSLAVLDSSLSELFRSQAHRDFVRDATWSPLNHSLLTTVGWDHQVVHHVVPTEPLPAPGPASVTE

Each structure is given as a SMILES string.

With `Nc1ccc2ccc(CC[C@H]3C[C@@H](n4ccc5c(O)ncnc54)[C@H](O)[C@@H]3O)cc2n1`, at PRMT5-MEP50 enzyme [1], the “pIC50 Assay 1a” value is recorded as 7.6. Also, the “pIC50 Assay 1b” value on PRMT5-MEP50 enzyme [2] is listed as 6.8. Moreover, in test [3], the “pIC50 Assay 2” value is given as 7.3.

With `Nc1nc2cc(CC[C@H]3C[C@@H](n4ccc5cnccc54)[C@H](O)[C@@H]3O)ccc2cc1Br`, the “pIC50 Assay 1b” value at PRMT5-MEP50 enzyme [2] is given as 10.4.

Consider `Nc1ccc2ccc(CC[C@H]3O[C@@H](n4ccc5c(N)ncnc54)[C@H](O)[C@@H]3O)cc2n1`, for which the “pIC50 Assay 1a” value against PRMT5-MEP50 enzyme [1] came to 9.4. Further, the “pIC50 Assay 1b” value against PRMT5-MEP50 enzyme [2] came out at 8.5. Further, the “pIC50 Assay 2” value in test [3] was found to be 8.8.

Regarding `CNc1ccc2ccc(CC[C@H]3C[C@@H](n4ccc5c(Cl)ncnc54)[C@H](O)[C@@H]3O)cc2n1`, the “pIC50 Assay 1a” value against PRMT5-MEP50 enzyme [1] was found to be 8.4. The “pIC50 Assay 1b” value on PRMT5-MEP50 enzyme [2] stood at 8.4. Besides, in test [3], the “pIC50 Assay 2” value turned out to be 7.7.

The record behind these values is US11318157B2, “6-6 bicyclic aromatic ring substituted nucleoside analogues for use as PRMT5 inhibitors” (Janssen Pharmaceutica NV, priority 2015, dated 2022).
